Test [1] has as its target T1, phosphomannomutase 2 (PMM) (Homo sapiens, UniProt O15305).
T1 sequence (O15305 1-246): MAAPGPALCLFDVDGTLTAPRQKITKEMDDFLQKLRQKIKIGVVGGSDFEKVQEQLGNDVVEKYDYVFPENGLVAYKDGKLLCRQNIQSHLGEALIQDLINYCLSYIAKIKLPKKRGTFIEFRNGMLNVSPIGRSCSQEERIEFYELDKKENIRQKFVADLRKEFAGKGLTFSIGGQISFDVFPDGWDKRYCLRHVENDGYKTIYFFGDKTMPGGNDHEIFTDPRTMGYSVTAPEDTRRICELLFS
Briefly: PMM enzyme inhibition assay. It counts as biochemical.

Test [2] has as its target T2, phosphomannose isomerase (PMI) (Homo sapiens, UniProt P34949).
T2 sequence (P34949 1-423): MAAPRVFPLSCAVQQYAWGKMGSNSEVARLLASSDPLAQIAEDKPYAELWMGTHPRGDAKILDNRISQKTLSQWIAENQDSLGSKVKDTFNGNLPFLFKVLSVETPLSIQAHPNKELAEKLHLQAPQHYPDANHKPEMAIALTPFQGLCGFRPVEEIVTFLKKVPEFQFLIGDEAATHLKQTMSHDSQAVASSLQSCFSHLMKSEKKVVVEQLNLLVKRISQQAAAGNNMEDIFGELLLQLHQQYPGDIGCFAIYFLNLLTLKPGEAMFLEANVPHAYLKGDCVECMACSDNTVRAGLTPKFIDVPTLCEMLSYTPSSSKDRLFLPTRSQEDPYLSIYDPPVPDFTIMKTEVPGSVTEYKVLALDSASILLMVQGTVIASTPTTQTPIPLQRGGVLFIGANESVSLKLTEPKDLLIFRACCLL
Briefly: PMI enzyme inhibition assay. It counts as biochemical. The settings on record: mean of at least three determinations.

The test system of test [3] is protein glycosylation (mannose incorporated in proteins). Briefly: Cellular assay: 3H-mannose incorporated in proteins vs glycolysis. It counts as cell-based. The method, then: A cellular assay was developed and utilized to provide proof-of-concept for the potential of the optimized PMI inhibitors as CDG therapeutics. […] Briefly. cells were preincubated with inhibitors and labeled with 3H-Mannose and 35S-Met/Cys. After washing and lysis, 3H- and 35S amounts were determined in the proteins.

Entries after “also recorded” stand apart in the source; their conditions may differ. Like-named read-outs stand apart in the source and are kept apart here.

Regarding `O=c1c2ccccc2sn1-c1ccccc1` [Compound 1, 2-Phenyl-2-hydrobenzo[d]isothiazol-3-one], in test [1] (tested up to 20 μM), the PMM inhibition entry is “completely devoid of PMM inhibition; also recorded: inactive”.

For orientation: IC50 means the midpoint of a concentration-inhibition curve. A lower IC50 goes with higher potency. In turn, `O=c1c2ccccc2sn1-c1ccc(Cl)cc1` [Compound 8, 2-(4-Chlorophenyl)-2-hydrobenzo[d]isothiazol-3-one] displayed an IC50 in test [2] of 1900 nM. Moreover, the results for the “fold increase in the amount of mannose incorporated in proteins vs glycolysis” value in test [3], in test [3] (25.0 μM) and in test [3] (50 μM) were 11.6 fold, 17.3 fold and 6.1 fold, respectively.

For the compound `O=c1c2ccccc2[se]n1-c1ccccc1` [Ebselen, 2-phenyl-1,2-benzisoselenazol-3(2H)-one, reference compound], the IC50 in test [1] (mean of at least three determinations) worked out at 670 nM; in test [2], 190 nM.

The values above are taken from US20110257233A1, “BENZOISOTHIAZOLONES AS INHIBITORS OF PHOSPHOMANNOSE ISOMERASE” (Sanford-Burnham Medical Research Institute, priority 2010, published 2011).
